Experiment: stability of control compound in HTS source plates
Conditions: source plates during HTS campaign

time until loss of activity: about 1 month
Compound: CCCCCCCCCCCCC/C=C/[C@@H](O)[C@H](CO)NC(=O)NCCCCCC [C6 urea-ceramide, C6-Urea-Ceramide]
